What is called IC50 is the concentration that inhibits the measured activity by half.

Amino acid sequences for entries named in this document (tags omitted).
UniProt P09874, whole entry: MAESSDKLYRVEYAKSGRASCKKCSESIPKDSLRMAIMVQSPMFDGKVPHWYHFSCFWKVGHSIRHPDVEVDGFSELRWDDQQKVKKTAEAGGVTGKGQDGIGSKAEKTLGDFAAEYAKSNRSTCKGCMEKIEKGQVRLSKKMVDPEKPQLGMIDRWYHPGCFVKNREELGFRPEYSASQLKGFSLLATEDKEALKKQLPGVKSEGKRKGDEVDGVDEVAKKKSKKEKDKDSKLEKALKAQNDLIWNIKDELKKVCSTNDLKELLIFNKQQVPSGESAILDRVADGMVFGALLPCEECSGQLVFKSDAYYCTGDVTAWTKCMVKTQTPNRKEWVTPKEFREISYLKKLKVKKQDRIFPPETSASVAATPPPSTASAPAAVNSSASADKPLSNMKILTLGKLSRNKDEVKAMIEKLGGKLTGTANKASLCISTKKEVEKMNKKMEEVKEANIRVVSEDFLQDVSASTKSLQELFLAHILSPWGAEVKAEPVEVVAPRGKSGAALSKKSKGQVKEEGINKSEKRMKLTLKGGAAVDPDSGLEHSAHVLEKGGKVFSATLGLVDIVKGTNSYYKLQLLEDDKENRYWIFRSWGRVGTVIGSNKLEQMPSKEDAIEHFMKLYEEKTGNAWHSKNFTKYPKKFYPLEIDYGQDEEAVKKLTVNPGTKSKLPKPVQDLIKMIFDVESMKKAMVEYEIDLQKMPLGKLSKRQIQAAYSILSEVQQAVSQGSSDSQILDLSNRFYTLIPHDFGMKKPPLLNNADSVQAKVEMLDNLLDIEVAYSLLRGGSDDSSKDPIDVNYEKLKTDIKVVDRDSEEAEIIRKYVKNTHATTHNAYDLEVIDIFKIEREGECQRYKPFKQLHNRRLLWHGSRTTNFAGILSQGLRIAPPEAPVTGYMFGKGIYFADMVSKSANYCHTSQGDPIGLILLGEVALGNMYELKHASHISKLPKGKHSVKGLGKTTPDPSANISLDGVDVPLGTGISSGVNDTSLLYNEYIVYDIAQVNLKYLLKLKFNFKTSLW

Structures are written as SMILES.

This experiment deals with Poly [ADP-ribose] polymerase 1 (Homo sapiens, UniProt P09874). Nature of the experiment: In vitro inhibitory concentration against human recombinant Poly (ADP-ribose) polymerase 1.

As to `Oc1nc(CCCN2CCN(c3ccccc3)CC2)nc2ccccc12`, the IC50 was 71 nM.

(Values after ChEMBL document CHEMBL1137205, “Rational approaches to discovery of orally active and brain-penetrable quinazolinone inhibitors of poly(ADP-ribose)polymerase” (J Med Chem, 2004).)
